## Apparent affinities of Ab-14 variants for a coronavirus HR2 peptide

Target peptide (SARS-CoV-2 spike, HR2 region): PDVDLGDISGINAS

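Phage display of a naive human antibody library on the peptide gave the parent. Library AAYL50 holds single substitutions and randomly drawn double and triple substitutions in the CDRs. The assay is AlphaSeq: two haploid yeast populations carry antibody and antigen on their surface. The frequency of each diploid, read from paired DNA barcodes, reflects how well the two displayed proteins bind. Read counts were normalised to the haploid input and turned into Kd by a linear fit to BCL2-family pairs of known affinity, for each replicate. Mating was done three times.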

Parent scFv Ab-14: VH joined to VL by a 15-residue (Gly4Ser)3 linker. Changes lie in the light chain CDRs alone.
VH: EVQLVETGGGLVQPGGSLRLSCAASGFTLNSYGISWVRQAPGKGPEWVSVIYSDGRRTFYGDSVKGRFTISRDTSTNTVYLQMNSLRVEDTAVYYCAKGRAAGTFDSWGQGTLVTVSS
VL: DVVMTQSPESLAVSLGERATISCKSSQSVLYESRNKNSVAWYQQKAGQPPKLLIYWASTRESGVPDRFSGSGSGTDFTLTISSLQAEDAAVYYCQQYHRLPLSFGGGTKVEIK

The parent's light chain CDRs are KSSQSVLYESRNKNSVA, WASTRES, QQYHRLPLS; each variant's own CDRs replace them letter for letter. Values are log10 of the apparent Kd in nM; lower means stronger binding. A pair that was not seen in that replicate is written "nd"; this usually means weak binding, but a binder can also be missed.

CDR-L1,CDR-L2,CDR-L3,"log10 Kd, replicates",empty controls
KSSQSVWYESRNKNSVA,WASAREY,QQYHRLPLS,nd nd nd,2/9 (3.74)
KSSQSVLYESRNKNSVA,WASTPES,SQYHRLPLF,nd nd nd,1/9 (3.25)
KSSQSVLYESRNKNGVW,WASTRES,QQYHRLPLS,4.93 3.45 nd,1/9 (3.62)
KSSESVLYESRNKNSVA,WGSTRES,PQYHRLPLS,nd 3.60 nd,1/9 (2.55)
KSSRSVLYESRNKNLVA,WASTRES,QQYHRLPLP,4.35 nd 3.84,0/9
KSSQSVLYESWNKNSVA,WASTREF,QQYHRLPLS,0.80 1.01 0.87,1/9 (5.09)
KSSQSVLYESRNKNSFA,WASTRPS,QQYHRLRLS,nd 4.23 nd,2/9 (3.40)
KTSQSVLYESRNKNSVA,CASTRES,QQYHRLPNS,1.57 1.08 1.31,0/9
SSSQSVLYESRNKNSVA,WAKTRES,QQYHRLPCS,1.87 1.75 2.00,1/9 (3.07)
KSSQSVLYESRNKNSVH,WASTRSS,QQYHRLPGS,5.46 nd nd,1/9 (4.08)
RSSQSVLYESRNKNSVA,WASTHES,QQYHRLPNS,nd nd nd,0/9
KSSQSVLYESRNKNSVH,WASTRES,QQSHRLPLS,nd nd 3.30,5/9 (4.24)
KSSQSVLYESRNKNSVA,NACTEES,QQYHRLPLS,nd nd 1.76,0/9
KSSQSVLYESRNKRSVA,WDSTRES,QQYMRLPLS,2.44 2.38 2.69,0/9
KSSQSIAYESRNKNSVA,WASFRES,QQYHRLPLS,1.22 1.40 1.65,1/9 (3.73)
KSSQSVLYESRNVNIVA,WASTRES,QQYHRLKLS,5.70 4.96 nd,2/9 (4.65)
KTSQSVLYESRNKNSVR,IASTRES,QQYHRLPLS,nd nd nd,1/9 (2.34)
KSSQSILYTSRNKNVVA,WASTRES,QQYHRLPLS,6.45 5.50 5.17,2/9 (3.77)
KSSQTVLYESRNKNSVA,WASFRES,QGYHRLPLS,nd nd 4.50,1/9 (3.81)
KLSQSVLYESRNKNSVA,WASTRES,QQYDFLPLS,0.47 0.66 0.63,1/9 (2.48)
KSSQSVLYERRNKNSVA,WASTRES,QQYKRMPLS,nd 4.27 4.42,2/9 (4.12)
KSNRSVLYESRNKPSVA,WASTRES,QQYHRLPLS,2.06 2.28 3.05,1/9 (3.02)
KSSQSVLYESRNHNSVA,WQSTRES,QQYHRLPLS,nd nd 4.09,1/9 (3.45)
KSSEFVLYESDNKNSVA,WASTRES,QQYHRLPLS,nd nd nd,3/9 (3.45)
DSSQSVLMESRNKNSVA,WASTRES,QQYHRLPLD,1.30 1.22 1.28,2/9 (5.17)
KSSQSQLYESRNKNSVA,RASTRES,QQYHRRPLS,nd nd nd,1/9 (2.90)
KSSQSVLYESRNKNSVA,WASTEES,QQYHRYSLS,nd nd nd,3/9 (5.01)
KSSISVLYESRNKNSVA,WASTREL,QQYHRFPLS,1.45 1.50 1.68,1/9 (3.85)
KSSQSVLYESMNKNSVA,WASTIES,VQYHRLPLS,nd nd nd,0/9
KSSQSVLEESRNKNSVA,WASTRES,QLFHRLPLS,nd 4.03 nd,5/9 (4.87)
KSSQCVLYESRNKNSSA,QASTRES,QQYHRLPLS,2.35 2.17 2.65,0/9
KSSQSVLRHSRNKNSPA,WASTRES,QQYHRLPLS,3.09 nd nd,1/9 (2.71)
KSSQSALYESRNKNSVA,WASTRAS,QQYHRLPLS,1.52 1.65 1.37,1/9 (4.79)
KSPQSVLYEARNKNSVA,WASTRES,QQYHRLPLS,1.37 1.35 1.46,6/9 (4.46)
KSCSSVLYESRNKNSVA,WASTRGS,QQYHRLPLS,3.30 2.84 2.89,4/9 (3.49)
WSSQSVLYESRNKQSVA,WASTRES,QQYVRLPLS,2.28 2.29 2.93,3/9 (3.25)
KSSNSVLYESRNKNSVA,WASTRES,WQFHRLPLS,4.05 3.56 3.70,8/9 (4.76)
KSSQSLLYEKRNKNSVA,WASTGES,QQYHRLPLS,nd 3.54 4.68,3/9 (4.83)
KSSQRVLYESRNKNSDA,WASTRES,QQYHRNPLS,nd 4.39 4.58,2/9 (3.36)
KSSQSVLYQSFNKNSVA,WASIRES,QQYHRLPLS,0.86 1.02 0.65,0/9
KSSQSVLYERRNKNSVV,WASTRES,QQYHRLPLS,nd nd 5.64,1/9 (4.57)
KSSQSVLYMSRNKNSVA,WASTRRS,QPYHRLPLS,4.32 3.39 4.08,3/9 (4.08)
KSTQSVLYESRNKNSVA,WASTREH,QQYARLPLS,1.32 1.48 1.61,1/9 (4.16)
KSSQSVLYESRNKNSVA,WASTRDK,QQYHILPLS,0.93 1.18 1.07,4/9 (3.89)
KCSQSVLYESRNKNSVA,WASTRES,QQYHRWPLG,4.50 3.61 4.53,3/9 (4.14)
KSSQSVHYESRNKNSVA,WRSTRHS,QQYHRLPLS,nd nd nd,0/9
KSSQSVLYESRIKNSAA,WAFTRES,QQYHRLPLS,6.12 nd nd,1/9 (4.27)
KKSQSVLYESRNKNSVA,WASQVES,QQYHRLPLS,5.20 nd 4.05,1/9 (5.00)
KSSQSVLYEMRNKNSVD,WASTRES,QQYHRLPLS,nd nd nd,2/9 (5.34)

Top 6 of the variants detected in all replicates, tightest first:

CDR-L1	CDR-L2	CDR-L3	log10 Kd, replicates	empty controls
KLSQSVLYESRNKNSVA	WASTRES	QQYDFLPLS	0.47 0.66 0.63	1/9 (2.48)
KSSQSVLYQSFNKNSVA	WASIRES	QQYHRLPLS	0.86 1.02 0.65	0/9
KSSQSVLYESWNKNSVA	WASTREF	QQYHRLPLS	0.80 1.01 0.87	1/9 (5.09)
KSSQSVLYESRNKNSVA	WASTRDK	QQYHILPLS	0.93 1.18 1.07	4/9 (3.89)
DSSQSVLMESRNKNSVA	WASTRES	QQYHRLPLD	1.30 1.22 1.28	2/9 (5.17)
KTSQSVLYESRNKNSVA	CASTRES	QQYHRLPNS	1.57 1.08 1.31	0/9

Parent in this assay: reference entry 0.65, copy in this library 1.68. Empty control strains, which show no peptide, gave a signal in 18% of pairings with library AAYL50; the median was 4.19 and 95% of these signals were weaker than 2.99. No background was subtracted. Also given: how often the same scFv was detected with the empty control strains, with their mean in brackets.

Values reported by Engelhart et al. 2022, doi:10.1038/s41597-022-01779-4 (FLAb copy).